## Measured affinities in a library of Ab-14 heavy chain variants

Data: MIT Lincoln Laboratory AlphaSeq set, Li et al. 2023, doi:10.1038/s41467-023-39022-2, as distributed in FLAb.

Binding partner: SARS-CoV-2 spike HR2 peptide, sequence PDVDLGDISGINAS.

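The starting antibody came from a phage panning campaign against this peptide. This is the validation round: designs drawn from the data on random variants, tested in the same kind of assay. Group labels follow the data file (Ctrl: baseline library sampled from a position-specific scoring matrix, with some repeated check sequences; GPLM: also part of the Gaussian process libraries; HC: hill climbing; Gibbs: Gibbs sampling; a sequence that several methods proposed may carry one label only). AlphaSeq pools MATa yeast showing the antibodies with MATalpha yeast showing the peptide. After mating in shaken culture at 30 °C for 16 h, diploids were selected and their barcode pairs sequenced. Scores were corrected for input abundance and mapped to Kd with protein pairs of known affinity run in the same pool. Each pool was mated in six replicate cultures.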

Each scFv is VH, three GGGGS repeats, VL, as in the parent Ab-14, and differs from it in the CDRs of the heavy chain only.
VH: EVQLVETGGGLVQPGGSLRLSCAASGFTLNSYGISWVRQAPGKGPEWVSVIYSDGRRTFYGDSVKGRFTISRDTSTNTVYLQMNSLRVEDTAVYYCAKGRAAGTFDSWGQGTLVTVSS
VL: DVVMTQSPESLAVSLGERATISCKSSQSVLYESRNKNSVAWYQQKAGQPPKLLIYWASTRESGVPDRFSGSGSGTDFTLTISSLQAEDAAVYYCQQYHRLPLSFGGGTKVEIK

Changes read parent residue, position, new residue, counted from the first residue of the VH shown. Values are log10 of the apparent Kd in nM; lower means stronger binding. A pair that was not seen in that replicate is written "ND"; this usually means weak binding, but a binder can also be missed.

With N30D+R100I [Ctrl] the result was 0.43, 0.21, 0.00, 0.24, 0.13, 0.52 (controls 0 of 18).
With T28D+A101F [Ctrl] the result was 1.20, 0.31, 0.37, -0.10, 0.55, 0.76 (controls 1 of 18).
With R56F+G61Q+D106I [Ctrl] the result was ND, ND, ND, ND, ND, ND (controls 0 of 18).
With S53A+G61A+R100D+A102Y [Ctrl] the result was ND, ND, ND, ND, ND, ND (controls 0 of 18).
With N30L+R56H+G61S+G99D+R100S+A102M [Ctrl] the result was 0.35, ND, 1.50, ND, ND, ND (controls 0 of 18).
With A101E+G103Q [Ctrl] the result was ND, ND, ND, ND, 2.27, ND (controls 0 of 18).
With S31E+R56Q [Ctrl+GPLM_HC] the result was 0.35, 0.25, 0.13, -0.24, 0.29, -0.03; -0.11, 0.59, 0.26, 0.42, 0.15, 0.21 (controls 1 of 36).
With T28N+A101N [Ctrl+GPLM_Gibbs] the result was 1.13, 1.84, 0.51, 0.98, 1.83, 1.21; 0.82, 0.75, 0.68, 0.56, 0.80, 1.24 (controls 1 of 36).
With S53R+A101E+D106F [Ctrl] the result was 0.72, 0.43, 1.00, 0.76, 1.38, 0.95 (controls 0 of 18).
With T28G+S31E+F59A+R100F+A101S+T104D [Ctrl] the result was 0.54, -0.13, -0.05, -0.39, -0.44, -0.24 (controls 0 of 18).
With S31D+G61H+S107Q [Ctrl] the result was 1.50, 1.29, 0.53, 1.42, 1.35, 0.97 (controls 0 of 18).
With T28V+S31E+R56K+F59M+G61S+A102S+F105V+D106R [Ctrl] the result was ND, ND, ND, ND, ND, ND (controls 0 of 18).
With N30E+A101W+D106I [Ctrl] the result was ND, ND, ND, ND, ND, ND (controls 0 of 18).
With R56V+T104I+S107M [Ctrl] the result was ND, ND, ND, ND, ND, ND (controls 0 of 18).
With F27E+T104P [Ctrl] the result was 1.52, 2.24, ND, ND, ND, ND (controls 0 of 18).
With S31E+G99W+R100S [Ctrl] the result was 2.16, 3.67, ND, ND, ND, ND (controls 0 of 18).
With G26H+T28S+N30D+F59A+S63K+A101L+S107V [Ctrl] the result was ND, ND, 1.72, ND, ND, ND (controls 0 of 18).
With D62P+A102D+F105R [Ctrl] the result was ND, ND, ND, ND, ND, 3.99 (controls 1 of 18).
With F27E+S63A+A101F [Ctrl] the result was 1.65, ND, 2.35, 1.93, 2.79, 1.89 (controls 0 of 18).
With S31D+S53A+F59M+G99S+T104G [Ctrl] the result was ND, ND, ND, ND, ND, ND (controls 1 of 18).
With Y32H+I34S [Ctrl] the result was ND, ND, ND, ND, ND, ND (controls 0 of 18).
With T28D+G103L [Ctrl] the result was 2.36, ND, ND, ND, ND, ND (controls 0 of 18).
With S35W+D106E [Ctrl] the result was ND, ND, ND, ND, ND, ND (controls 0 of 18).
With I34R [Ctrl] the result was ND, ND, ND, ND, ND, ND (controls 0 of 18).
With F27N+T28K+S107E [Ctrl] the result was 0.62, 1.24, 1.47, ND, ND, ND (controls 0 of 18).
With S31D+R56K+G61L [Ctrl] the result was ND, 1.41, 0.95, 1.73, 0.99, 2.07 (controls 0 of 18).
With T28S+S31E+S63N [Ctrl] the result was 0.76, 0.10, 0.18, 0.42, 0.23, 0.74 (controls 3 of 18).
With T58M+R100N [Ctrl] the result was ND, 1.71, 1.23, ND, ND, 1.93 (controls 0 of 18).
With S31D+D54C+T58K+R100M [Ctrl] the result was ND, ND, ND, ND, ND, ND (controls 0 of 18).
With N30L+T58V+G61M [Ctrl] the result was ND, ND, ND, ND, ND, ND (controls 0 of 18).
With T58V+G99E [Ctrl] the result was 3.37, ND, ND, 2.84, ND, ND (controls 0 of 18).
With R56Q+G61T+R100H [Ctrl] the result was ND, ND, ND, ND, ND, 2.55 (controls 0 of 18).
With T58N+G61T+A101N+F105V+S107Q [Ctrl] the result was ND, ND, ND, ND, ND, ND (controls 0 of 18).
With S31E+K65R+A101L+S107Q [Ctrl] the result was 0.14, 0.44, 1.34, 0.26, 0.48, 0.79 (controls 1 of 18).
With L29I [Ctrl] the result was ND, ND, ND, ND, ND, ND (controls 0 of 18).
With F27T+S107I [Ctrl] the result was ND, ND, ND, ND, 2.08, ND (controls 0 of 18).
With T28E+S35H+F59M+A101T [Ctrl] the result was ND, ND, ND, ND, ND, ND (controls 0 of 18).
With T104Q+S107T [Ctrl] the result was ND, 1.63, ND, ND, 2.16, 1.60 (controls 0 of 18).
With N30D+I51D+A101M+S107P [Ctrl] the result was ND, ND, ND, ND, ND, ND (controls 0 of 18).
With S31M+F59A+R100F [Ctrl] the result was 0.61, 1.32, 0.12, 0.50, 0.95, 0.37 (controls 0 of 18).
With T28Q+G61S+G99I+F105P [Ctrl] the result was ND, ND, ND, ND, ND, ND (controls 0 of 18).
With L29I+R100S [Ctrl] the result was 2.45, 1.71, 1.90, 1.44, 2.49, 1.74 (controls 0 of 18).

Values of this round are not directly comparable with the first-round values of the same sequences. Where one sequence has several entries in the source, the replicates are listed entry by entry, parted by semicolons. As a blank, each scFv also met three strains without target: over all heavy chain designs, 1% of these pairings were detected, typically at 2.08 and seldom below 0.84. For each scFv, signals with the empty controls are counted beside the result. In the paper, a design with two or fewer of six values counts as a poor binder.